Laboratory results from patent US7375074B2, “Body weight gain inhibitor” (priority 2001, dated 2008).

Molecular target: T1, GPR7 (Homo sapiens, UniProt P48145)
T1 sequence (P48145 1-328): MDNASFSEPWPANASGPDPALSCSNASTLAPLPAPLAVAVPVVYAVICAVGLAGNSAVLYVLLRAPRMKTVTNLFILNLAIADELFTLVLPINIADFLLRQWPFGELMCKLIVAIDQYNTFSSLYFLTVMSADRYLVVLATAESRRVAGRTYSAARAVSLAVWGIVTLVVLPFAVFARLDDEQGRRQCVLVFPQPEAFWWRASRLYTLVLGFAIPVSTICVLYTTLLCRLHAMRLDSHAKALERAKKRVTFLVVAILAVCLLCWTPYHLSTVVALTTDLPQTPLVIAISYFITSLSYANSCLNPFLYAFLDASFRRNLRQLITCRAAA
Test: Receptor binding using [Phe2,125I-Tyr10]-human GPR8 ligand (1-20), membrane fraction of GPR7 expressing CHO cells
Set-up: expressed in transfected cells; host or cells: CHO dhfr- cells, plasmid pAKKO-Human GPR7; membrane fraction
Settings: GPR7 expressing CHO cell membrane fraction 15 μg/ml, read-out: concentration of 50% inhibition (IC50) of binding
Description: Using [Phe^2, ^125I-Tyr^10]-human GPR8 ligand (1-20) prepared as described in Example 4, the membrane fraction from GPR7 expressing CHO cells prepared by the method as described in Reference Example 82 and the cell membrane fraction from GPR8 expressing cells prepared by the method as described in Reference Example 6, a receptor binding assay was carried out.
Cell membrane fractions prepared from GPR7 expressing CHO cells and GPR8 expressing CHO cells, were diluted to various concentration with assay buffer (25 mM Tris-HCl, 5 mM EDTA, 0.05% CHAPS, 0.1% BSA, 0.5 mM PMSF, 1 μg/ml Pepstatin, 4 μg/ml E-64, 20 μg/ml Leupeptin, pH7.4), and 200 μl each of the diluent was dispensed into polypropilene test tube (Falcon 2053). […] After filtration, a radioactivity remaining on the filter was counted using γ-counter, and an amount of specific binding was estimated by subtracting an amount of non-specific binding from an amount of maximum binding.
The inhibition of binding for GPR7 receptor or GPR8 receptor in the test sample (the inhibition rate (%)) is represented by the ratio of the values obtained by subtracting a radioactivity (X) remaining on the filter in the case where the test sample and of [Phe^2, ^125I-Tyr^10]-human GPR8 ligand (1-20) were added from the maximum binding (TB) to the specific binding (SB) ((TB−X)/SB×100(%)). […]

CSCC[C@H](NC(=O)[C@H](CC(C)C)NC(=O)[C@H](CC(C)C)NC(=O)CNC(=O)[C@H](C)NC(=O)[C@H](C)NC(=O)[C@H](CCCNC(=N)N)NC(=O)CNC(=O)[C@@H](NC(=O)[C@@H](NC(=O)[C@H](Cc1c[nH]cn1)NC(=O)[C@H](Cc1ccc(O)cc1)NC(=O)[C@H](CCCNC(=N)N)NC(=O)[C@@H]1CCCN1C(=O)[C@H](CO)NC(=O)[C@H](C)NC(=O)[C@@H](NC(=O)[C@H](Cc1c[nH]cn1)NC(=O)[C@H](CCCCN)NC(=O)[C@H](Cc1ccc(O)cc1)NC(=O)[C@@H](N)Cc1c[nH]c2ccccc12)C(C)C)[C@@H](C)O)C(C)C)C(=O)NCC(=O)N[C@@H](CC(C)C)C(=O)O [hGPR8L(1-23)]
IC50: 130 pM
